In ChEMBL document CHEMBL3124844 (J Med Chem, 2014) one finds Ki and Ratio Ki data, which are given here for eight compounds.

Protein sequences, listed by entry. Tags and fused reporters are not part of them.
UniProt P23977, whole entry: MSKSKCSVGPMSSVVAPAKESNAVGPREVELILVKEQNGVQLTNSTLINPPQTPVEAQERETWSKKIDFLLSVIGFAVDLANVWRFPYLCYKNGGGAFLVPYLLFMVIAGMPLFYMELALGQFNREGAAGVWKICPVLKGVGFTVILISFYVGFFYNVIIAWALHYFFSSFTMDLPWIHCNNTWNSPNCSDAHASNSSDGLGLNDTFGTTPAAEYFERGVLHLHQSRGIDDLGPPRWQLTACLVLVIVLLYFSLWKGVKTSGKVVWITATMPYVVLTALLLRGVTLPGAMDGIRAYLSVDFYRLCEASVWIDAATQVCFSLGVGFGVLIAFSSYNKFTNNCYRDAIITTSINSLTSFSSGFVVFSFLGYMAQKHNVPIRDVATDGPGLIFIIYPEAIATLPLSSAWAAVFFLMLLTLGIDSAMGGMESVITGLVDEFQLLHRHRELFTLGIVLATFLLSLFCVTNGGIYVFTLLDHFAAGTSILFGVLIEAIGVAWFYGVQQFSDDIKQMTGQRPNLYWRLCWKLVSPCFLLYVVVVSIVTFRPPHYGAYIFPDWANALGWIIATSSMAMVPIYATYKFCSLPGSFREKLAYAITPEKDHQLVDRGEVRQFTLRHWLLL
UniProt P31652, whole entry: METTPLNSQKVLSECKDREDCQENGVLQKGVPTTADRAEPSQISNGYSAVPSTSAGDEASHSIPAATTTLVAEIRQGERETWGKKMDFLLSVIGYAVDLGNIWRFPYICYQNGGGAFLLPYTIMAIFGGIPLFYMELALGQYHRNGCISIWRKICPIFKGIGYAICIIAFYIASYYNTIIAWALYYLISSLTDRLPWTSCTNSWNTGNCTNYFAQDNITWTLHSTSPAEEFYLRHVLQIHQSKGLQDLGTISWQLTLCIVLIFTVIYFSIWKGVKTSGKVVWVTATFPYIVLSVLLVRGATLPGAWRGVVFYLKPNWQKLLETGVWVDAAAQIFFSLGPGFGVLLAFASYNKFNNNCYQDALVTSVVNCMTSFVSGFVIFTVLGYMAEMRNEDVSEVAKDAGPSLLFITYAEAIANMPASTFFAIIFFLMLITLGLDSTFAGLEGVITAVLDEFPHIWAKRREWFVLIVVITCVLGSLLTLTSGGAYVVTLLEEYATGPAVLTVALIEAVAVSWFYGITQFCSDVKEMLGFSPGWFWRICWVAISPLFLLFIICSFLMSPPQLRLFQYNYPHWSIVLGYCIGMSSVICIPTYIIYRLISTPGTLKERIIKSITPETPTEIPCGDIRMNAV

As usually defined, the Ki is the dissociation constant of the complex between target and ligand, obtained from inhibition or displacement. Higher therefore signals a looser hold on the target.

The target of test [1] is Sodium-dependent dopamine transporter (Rattus norvegicus, UniProt P23977). As to the kind of experiment: Displacement of [3H]WIN35,428 from Sprague-Dawley rat brain DAT after 120 mins by liquid scintillation counting analysis. In kind it is tissue-based. In general terms: Loss of bound radioactivity is the signal in a displacement assay; it reports binding, not function.

The species entered for another test is Rattus norvegicus. Kind of test: Selectivity ratio of Ki for Sprague-Dawley rat brain SERT to Ki for Sprague-Dawley rat brain DAT.
Test [2] addresses Sodium-dependent serotonin transporter (Rattus norvegicus, UniProt P31652). Kind of test: Displacement of [3H]citalopram from Sprague-Dawley rat brain SERT after 60 mins by liquid scintillation counting analysis. In kind it is tissue-based.

In test [1], `O=C(CSC(c1ccc(Br)cc1)c1ccc(Br)cc1)NCCCCc1ccccc1` showed a Ki of 405 nM.

In turn, `CNC(=O)CSC(c1ccc(Cl)cc1)c1ccc(Cl)cc1` yielded a Ki in test [1] of 4130 nM.

For `Fc1ccc(C(SCCNCCCc2ccccc2)c2ccc(F)cc2)cc1`, the affinity in test [1] corresponds to a Ki of 114 nM. This Ki lies about 36-fold lower than the previous one.

The compound `O=C(CSC(c1ccc(F)cc1)c1ccc(F)cc1)NCCCc1ccccc1` registered a Ki in test [1] of 442 nM.

Turning to `O=C(CSC(c1ccc(Br)cc1)c1ccc(Br)cc1)NCCCc1ccccc1`, in the test filed under Rattus norvegicus, the Ratio Ki was 249.

`CCCCNC(=O)CSC(c1ccc(F)cc1)c1ccc(F)cc1` displayed a Ki in test [2] of 25500 nM.

Turning to `CCCCNCCSC(c1ccccc1)c1ccccc1`, the Ratio Ki in the test listed under Rattus norvegicus turned out to be 18.

Turning to `CCCCNCC[S+]([O-])C(c1ccccc1)c1ccccc1` (stereo not drawn), the Ratio Ki in the test filed under Rattus norvegicus stood at 41.
